Measured values reported in paper PMC8976035, “Pharmacodynamic, pharmacokinetic, and phase 1a study of bisthianostat, a novel histone deacetylase inhibitor, for the treatment of relapsed or refractory multiple myeloma” (Acta Pharmacologica Sinica, 2021).
Read-outs that look alike come from different tables or passages of the source.

How the values were obtained:
[1] = mouse, in vivo
RPMI-8226 xenograft = settings: mouse, in vivo
in vivo [2] = settings: ICR, mouse; for half-life: t1/2
in vivo [3] = settings: beagle, dog
clinical = settings: human, in vivo; for AUC(0-inf): AUC0–∞
[4] = human, in vivo
MM.1S xenograft = settings: mouse, in vivo
[5] = both, ICR, mouse, in vivo, po, 200 mg/kg
[6] = human, in vivo; remark: listed apart in the source

O=C(CCCCNC(=O)c1nc(-c2nccs2)sc1C1CC1)NO [BIS]
tissue distribution [1]: favorably distributed in blood compared with other tissues such as lung and liver | body weight versus control (RPMI-8226 xenograft): no significant weight loss | AUC(0-inf) (in vivo [2]; both, iv, 10 mg/kg): 7340 ng·h/mL | MRT inf (in vivo [2]; both, iv, 10 mg/kg): 13.8 min | Vd (in vivo [2]; both, iv, 10 mg/kg): 0.31 L/kg | clearance (in vivo [2]; both, iv, 10 mg/kg): 22.8 mL/min/kg | half-life (in vivo [2]; both, iv, 10 mg/kg): 16.2 min | bioavailability (in vivo [2]; both, po): 16.9 to 35.5% | AUC(0-inf) (in vivo [2]; both, po, 50 mg/kg): 13400 ng·h/mL | Cmax (in vivo [2]; both, po, 50 mg/kg): 8150 ng/mL | MRT inf (in vivo [2]; both, po, 50 mg/kg): 96.6 min | bioavailability (in vivo [2]; both, po, 50 mg/kg): 35.5% | half-life (in vivo [2]; both, po, 50 mg/kg): 61.8 min | Tmax (in vivo [2]; both, po, 50 mg/kg): 15 min | AUC(0-inf) (in vivo [2]; both, po, 100 mg/kg): 20400 ng·h/mL | Cmax (in vivo [2]; both, po, 100 mg/kg): 8660 ng/mL | MRT inf (in vivo [2]; both, po, 100 mg/kg): 163 min | bioavailability (in vivo [2]; both, po, 100 mg/kg): 27.6% | half-life (in vivo [2]; both, po, 100 mg/kg): 57 min | Tmax (in vivo [2]; both, po, 100 mg/kg): 30 min | AUC(0-inf) (in vivo [2]; both, po, 200 mg/kg): 25100 ng·h/mL | Cmax (in vivo [2]; both, po, 200 mg/kg): 9800 ng/mL | MRT inf (in vivo [2]; both, po, 200 mg/kg): 161 min | bioavailability (in vivo [2]; both, po, 200 mg/kg): 16.9% | AUC(0-inf) (in vivo [2]; female, iv, 10 mg/kg): 7900 ng·h/mL | MRT inf (in vivo [2]; female, iv, 10 mg/kg): 14.4 min | Vd (in vivo [2]; female, iv, 10 mg/kg): 0.3 L/kg | clearance (in vivo [2]; female, iv, 10 mg/kg): 21.2 mL/min/kg | half-life (in vivo [2]; female, iv, 10 mg/kg): 17.4 min | AUC(0-inf) (in vivo [2]; female, po, 50 mg/kg): 14100 ng·h/mL | Cmax (in vivo [2]; female, po, 50 mg/kg): 7970 ng/mL | MRT inf (in vivo [2]; female, po, 50 mg/kg): 112 min | half-life (in vivo [2]; female, po, 50 mg/kg): 66 min | Tmax (in vivo [2]; female, po, 50 mg/kg): 15 min | AUC(0-inf) (in vivo [2]; female, po, 100 mg/kg): 26000 ng·h/mL | Cmax (in vivo [2]; female, po, 100 mg/kg): 8650 ng/mL | MRT inf (in vivo [2]; female, po, 100 mg/kg): 207 min | half-life (in vivo [2]; female, po, 100 mg/kg): 67.8 min | Tmax (in vivo [2]; female, po, 100 mg/kg): 30 min | AUC(0-inf) (in vivo [2]; female, po, 200 mg/kg): 26500 ng·h/mL | Cmax (in vivo [2]; female, po, 200 mg/kg): 10800 ng/mL | MRT inf (in vivo [2]; female, po, 200 mg/kg): 171 min | half-life (in vivo [2]; female, po, 200 mg/kg): 87.6 min | Tmax (in vivo [2]; female, po, 200 mg/kg): 15 min | AUC(0-inf) (in vivo [2]; male, iv, 10 mg/kg): 6810 ng·h/mL | MRT inf (in vivo [2]; male, iv, 10 mg/kg): 13.2 min | Vd (in vivo [2]; male, iv, 10 mg/kg): 0.33 L/kg | clearance (in vivo [2]; male, iv, 10 mg/kg): 24.5 mL/min/kg | half-life (in vivo [2]; male, iv, 10 mg/kg): 15.6 min | AUC(0-inf) (in vivo [2]; male, po, 50 mg/kg): 12800 ng·h/mL | Cmax (in vivo [2]; male, po, 50 mg/kg): 8340 ng/mL | MRT inf (in vivo [2]; male, po, 50 mg/kg): 81 min | half-life (in vivo [2]; male, po, 50 mg/kg): 57.6 min | Tmax (in vivo [2]; male, po, 50 mg/kg): 15 min | AUC(0-inf) (in vivo [2]; male, po, 100 mg/kg): 16000 ng·h/mL | Cmax (in vivo [2]; male, po, 100 mg/kg): 8680 ng/mL | MRT inf (in vivo [2]; male, po, 100 mg/kg): 118 min | half-life (in vivo [2]; male, po, 100 mg/kg): 46.2 min | Tmax (in vivo [2]; male, po, 100 mg/kg): 30 min | AUC(0-inf) (in vivo [2]; male, po, 200 mg/kg): 23800 ng·h/mL | Cmax (in vivo [2]; male, po, 200 mg/kg): 8880 ng/mL | MRT inf (in vivo [2]; male, po, 200 mg/kg): 151 min | half-life (in vivo [2]; male, po, 200 mg/kg): 109 min | Tmax (in vivo [2]; male, po, 200 mg/kg): 30 min | NOAEL (in vivo [3]): < 15 mg/kg/day | AUC (clinical): > 2000 ng·h/mL | Vd/F (clinical): 230 to 538 L | AUC(0-inf) (clinical; po, 100 mg): 2070 ng·h/mL | Cmax (clinical; po, 100 mg): 599 ng/mL | Vd/F (clinical; po, 100 mg): 314 L | half-life (clinical; po, 100 mg, t1/2): 257 min | AUC(0-inf) (clinical; po, 200 mg): 3760 ng·h/mL | Cmax (clinical; po, 200 mg): 1110 ng/mL | Vd/F (clinical; po, 200 mg): 343 L | half-life (clinical; po, 200 mg, t1/2): 263 min | Tmax (clinical; po, 200 mg, tmax): 30 min | AUC(0-inf) (clinical; po, 400 mg): 5190 ng·h/mL | Cmax (clinical; po, 400 mg): 1300 ng/mL | Vd/F (clinical; po, 400 mg): 445 L | half-life (clinical; po, 400 mg, t1/2): 246 min | half-life (clinical; po, half-life): ~240 min | Ctrough [4]: < 2.00 ng/mL | time to achieve the steady state [4]: ≤ 7 days | time of reaching Cmax (tmax) ([4]; po): 30 to 135 min | body weight versus control (MM.1S xenograft): no significant weight loss | Tmax [5]: 0.38 (0.25–0.50) h | any grade hematological treatment-related AEs, patients [6]: 50% | any grade nonhematological treatment-emergent AEs, patients [6]: 37.5% | clinical cardiac toxicity [6]: no clinical cardiac toxicity has been observed | discontinuation of treatment due to AEs [6]: No patient discontinued the treatment | dose-limiting toxicities (DLT) [6]: no DLT has been observed | grade 3/4 hematological AEs, patients [6]: 25% | grade 3/4 nonhematological AEs [6]: no grade 3/4 nonhematological AEs were reported
